Literature values as cited in patent publication US4874862A, “Process for preparing guanine derivatives” (Warner-Lambert Company, priority 1987, dated 1989).

Tested on: PNP
Settings: Biochem. Pharm., 31 (2), 163 (1982); cited from earlier work

Nc1nc2nc(N)[nH]c2c(=O)[nH]1 [8-Aminoguanine]
PNP-activity: reported to have PNP-activity
